According to patent US20230070988A1, “COMBINATIONS OF EGFR INHIBITORS AND ROR1 INHIBITORS FOR THE TREATMENT OF CANCER” (priority 2020, published 2023):

How the values were obtained:
[1] = test system: NCI-H1975; assay: NCI-H1975 cell line xenograft mouse model of NSCLC; set-up: species or system mice (human NSCLC adenocarcinoma cell line); conditions: FIG. 3A-3D
Description: (§1) Experiments were performed using NCI-H1975, a NSCLC adenocarcinoma cell line. NCI-H1975 has an L858R mutation that increases EGFR activity.
After tumor cell inoculation, the animals were checked daily for morbidity and mortality. […] Mortality and observed clinical signs were recorded for individual animals in detail.
Tumor volumes were measured twice per week in two dimensions using a caliper, and the volume was expressed in mm^3 using the formula: “V=(L×W×W)/2, where V is tumor volume, L is tumor length (the longest tumor dimension) and W is tumor width (the longest tumor dimension perpendicular to L). Dosing as well as tumor and body weight measurements were conducted in a Laminar Flow Cabinet.

[2] = test system: NCI-H1975 cells; assay: NCI-H1975 cells treated in vitro, dose response; format: cell-based; conditions: FIG. 2
Description: as §1

Structure (SMILES): COc1cc2ncnc(Nc3ccc(F)c(Cl)c3)c2cc1OCCCN1CCOCC1 [gefitinib]
- resistance of NCI-H1975 (EGFR T790M) in vivo [1]: resistance
- resistance of NCI-H1975 (EGFR T790M) in vitro [2]: resistance
